# According to publication PMC11106956, “Population pharmacokinetics of primaquine and its metabolites in African males” (Malaria Journal, 2024):
# Conditions: single oral PQ 0.40-0.50 mg/kg; typical individual 62.5 kg; metabolites dosed as PQ molar dose 1:1
smiles,measurement,value
COc1cc(NC(C)CCCN)c2ncccc2c1 (stereo not shown) [Primaquine],"VC/F, apparent volume of distribution of the central compartment, population estimate (%RSE)",163 (10.3%) L
